Ab-14 heavy chain CDR variants: yeast mating affinities

Target peptide (SARS-CoV-2 spike, HR2 region): PDVDLGDISGINAS

Each scFv is VH, a (GGGGS)3 linker, VL, as in the parent Ab-14, and differs from it in the CDRs of the heavy chain only.
VH: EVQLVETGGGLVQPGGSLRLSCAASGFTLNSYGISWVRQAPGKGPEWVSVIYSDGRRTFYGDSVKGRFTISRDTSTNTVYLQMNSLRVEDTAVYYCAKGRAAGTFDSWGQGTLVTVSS
VL: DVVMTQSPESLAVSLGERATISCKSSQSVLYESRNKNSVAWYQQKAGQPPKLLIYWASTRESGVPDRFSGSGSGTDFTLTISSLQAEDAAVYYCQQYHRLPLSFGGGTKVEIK

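The starting antibody came from a phage panning campaign against this peptide. Designed CDR sequences, proposed from the first random library and measured here. Several design methods are mixed in this list. In AlphaSeq, yeast of one mating type display the scFv and yeast of the other type display the target. After mating in shaken culture at 30 °C for 16 h, diploids were selected and their barcode pairs sequenced. Read counts were normalised to the haploid input and turned into Kd by a linear fit to BCL2-family pairs of known affinity, for each replicate. Mating was done six times.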

The whole VH of each variant is written out.
Values are log10 of the apparent Kd in nM; lower means stronger binding.
Replicates are averaged; those with no signal do not enter the mean.
A pair that was not seen in any replicate is written "no signal"; this usually means weak binding, but a binder can also be missed.
As a blank, each scFv also met three strains without target: over all heavy chain designs, 1% of these pairings were detected, typically at 2.08 and seldom below 0.84.
Of ten entries with the parent sequence, four were seen in most replicates (averages 0.34 to 2.37), three in one and three in none, so single entries are noisy.
The authors' rule: three or more of the six replicates give a measured affinity, fewer mean a poor binder.
Values of this round are not directly comparable with the first-round values of the same sequences.

VH,"log10 Kd (nM), mean",replicates with signal
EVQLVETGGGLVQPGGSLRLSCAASGFTLNSYGISWVRQAPGKGPEWVSVIYSDGRRTFYGDSVKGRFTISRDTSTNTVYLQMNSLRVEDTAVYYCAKGAAQGTFDSWGQGTLVTVSS,1.61,1/6
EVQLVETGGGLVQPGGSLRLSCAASGFDLNEYGISWVRQAPGKGPEWVSVIYADGMRVRYVENVKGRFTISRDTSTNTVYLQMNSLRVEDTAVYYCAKGMGQTSGVTWGQGTLVTVSS,no signal,0/6
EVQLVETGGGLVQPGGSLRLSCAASGFDLNSYGISWVRQAPGKGPEWVSVIYSDGRRTFYGGDVKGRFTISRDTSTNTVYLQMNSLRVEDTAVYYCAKGRAAGTFDSWGQGTLVTVSS,1.85,4/6
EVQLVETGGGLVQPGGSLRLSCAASGFDINSYGISWVRQAPGKGPEWVSVIYSDGRRTFYGDSVKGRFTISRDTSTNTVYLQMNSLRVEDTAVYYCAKGRAAGWFNSWGQGTLVTVSS,no signal,0/6
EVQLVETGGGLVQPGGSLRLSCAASGFTLGSYGISWVRQAPGKGPEWVSVIYSDGRRTFYSDNVKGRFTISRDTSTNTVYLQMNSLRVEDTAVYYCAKGRAGGIFDSWGQGTLVTVSS,0.60,5/6
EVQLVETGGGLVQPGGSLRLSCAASGFTLRSHGISWVRQAPGKGPEWVSVIYSDGRRTMYGDSVKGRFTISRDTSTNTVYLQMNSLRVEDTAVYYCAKGRAAGTFDSWGQGTLVTVSS,no signal,0/6
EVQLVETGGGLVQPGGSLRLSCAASGFSLNNYGISWVRQAPGKGPEWVSVIYSDGRRTFYSDSVKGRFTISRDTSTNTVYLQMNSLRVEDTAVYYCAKGRAAGTFDSWGQGTLVTVSS,0.73,6/6
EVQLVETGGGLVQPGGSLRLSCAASGFTLYSYGISWVRQAPGKGPEWVSVIYADGRRTFYGDSVKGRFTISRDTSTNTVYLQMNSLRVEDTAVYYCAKGRAAGTFDSWGQGTLVTVSS,0.25,6/6
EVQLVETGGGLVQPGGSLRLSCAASGFELNSYGISWVRQAPGKGPEWVSVIYSDGRRTFYADSVKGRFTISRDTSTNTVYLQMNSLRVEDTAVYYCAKGRQAGTFDAWGQGTLVTVSS,0.36,6/6
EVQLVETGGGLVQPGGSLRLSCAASGFDLNSYGISWVRQAPGKGPEWVSVIYSDGRRTFYIDQVKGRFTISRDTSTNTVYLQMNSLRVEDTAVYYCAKGKAAGTFDSWGQGTLVTVSS,-0.15,6/6
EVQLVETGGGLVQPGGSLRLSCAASGFSLNSYGISWVRQAPGKGPEWVSVIYSDGRRTFYEDSVKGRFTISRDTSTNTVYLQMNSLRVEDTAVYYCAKGQLAGTFDSWGQGTLVTVSS,0.99,6/6
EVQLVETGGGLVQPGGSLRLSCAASGFDLAEYGISWVRQAPGKGPEWVSVIYADGSRVAYNQNVKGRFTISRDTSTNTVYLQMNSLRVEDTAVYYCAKGTGGGSFDFWGQGTLVTVSS,no signal,0/6
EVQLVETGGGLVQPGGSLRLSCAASGFDLNSYGISWVRQAPGKGPEWVSVIYSDGRRTFYADSVKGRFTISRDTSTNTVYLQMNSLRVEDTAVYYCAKGRVAGTFDSWGQGTLVTVSS,0.03,6/6
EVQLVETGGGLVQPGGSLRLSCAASGFTLNFYGISWVRQAPGKGPEWVSVIYSDGRRVFYSDSVKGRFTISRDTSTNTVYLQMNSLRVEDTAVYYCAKRNAAGFFDHWGQGTLVTVSS,0.69,1/6
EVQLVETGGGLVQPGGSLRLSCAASGFDLNEYGISWVRQAPGKGPEWVSVIYADGMRTVYADSVKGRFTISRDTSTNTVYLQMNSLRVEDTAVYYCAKGTNAGTFDVWGQGTLVTVSS,-0.57,6/6
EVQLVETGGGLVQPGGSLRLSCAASGFTLNSYGISWVRQAPGKGPEWVSVIYFDGRRTFYGDSVKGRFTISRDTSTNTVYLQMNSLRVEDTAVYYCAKGQAAATFDSWGQGTLVTVSS,no signal,0/6
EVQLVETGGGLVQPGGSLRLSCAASGFDLNEYGISWVRQAPGKGPEWVSVIYSDGRRTFYCDSVKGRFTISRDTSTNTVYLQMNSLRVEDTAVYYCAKGRAAVTFDQWGQGTLVTVSS,1.92,1/6
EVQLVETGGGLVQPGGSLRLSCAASGFTLDSYGISWVRQAPGKGPEWVSVIYSDGRRTIYGDSVKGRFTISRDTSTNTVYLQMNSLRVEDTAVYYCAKGRAAGTFDSWGQGTLVTVSS,no signal,0/6
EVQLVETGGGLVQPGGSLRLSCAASGFDLNEYGISWVRQAPGKGPEWVSVIYADGMRTFYADSVKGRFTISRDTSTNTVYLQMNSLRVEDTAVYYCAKGNTAGTFDMWGQGTLVTVSS,-0.60,6/6
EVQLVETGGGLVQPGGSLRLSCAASGFSLNEYGISWVRQAPGKGPEWVSVIYSDGRRTFYVDSVKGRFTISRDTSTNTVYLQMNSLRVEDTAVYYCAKGRQAGTFDSWGQGTLVTVSS,no signal,0/6
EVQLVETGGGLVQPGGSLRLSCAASGYDINEYGVSWVRQAPGKGPEWVSVIYADGKRNAYANSVKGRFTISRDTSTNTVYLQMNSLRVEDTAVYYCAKGKWAGAFVDWGQGTLVTVSS,2.51,1/6
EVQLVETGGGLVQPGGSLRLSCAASGFWLRQYGISWVRQAPGKGPEWVSVIYADGRRTIYGDSVKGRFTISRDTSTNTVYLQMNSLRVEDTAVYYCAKGSAAGTFDSWGQGTLVTVSS,0.90,6/6
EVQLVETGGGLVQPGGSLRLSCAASGFDLNEYGISWVRQAPGKGPEWVSVIYADGRRTAYADSVKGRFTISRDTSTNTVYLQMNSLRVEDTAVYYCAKGEIAGTFKFWGQGTLVTVSS,-0.61,6/6

The 3 strongest on average among those seen in every replicate, once more:

VH,"log10 Kd (nM), mean",replicates with signal
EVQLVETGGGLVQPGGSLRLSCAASGFDLNEYGISWVRQAPGKGPEWVSVIYADGRRTAYADSVKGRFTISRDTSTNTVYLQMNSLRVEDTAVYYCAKGEIAGTFKFWGQGTLVTVSS,-0.61,6/6
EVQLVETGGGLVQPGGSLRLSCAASGFDLNEYGISWVRQAPGKGPEWVSVIYADGMRTFYADSVKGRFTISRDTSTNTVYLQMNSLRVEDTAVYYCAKGNTAGTFDMWGQGTLVTVSS,-0.60,6/6
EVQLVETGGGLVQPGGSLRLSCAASGFDLNEYGISWVRQAPGKGPEWVSVIYADGMRTVYADSVKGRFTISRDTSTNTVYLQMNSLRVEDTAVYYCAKGTNAGTFDVWGQGTLVTVSS,-0.57,6/6

Data: MIT Lincoln Laboratory AlphaSeq set, Li et al. 2023, doi:10.1038/s41467-023-39022-2, as distributed in FLAb.